These results are taken from BindingDB's records for doi:10.1016/j.bmc.2011.01.052 (Kinki University, 2011).

The chains behind the UniProt entries cited, without tags or fusion partners. Residues count along the entry.
UniProt P23739, 1014-1841 limits assumed: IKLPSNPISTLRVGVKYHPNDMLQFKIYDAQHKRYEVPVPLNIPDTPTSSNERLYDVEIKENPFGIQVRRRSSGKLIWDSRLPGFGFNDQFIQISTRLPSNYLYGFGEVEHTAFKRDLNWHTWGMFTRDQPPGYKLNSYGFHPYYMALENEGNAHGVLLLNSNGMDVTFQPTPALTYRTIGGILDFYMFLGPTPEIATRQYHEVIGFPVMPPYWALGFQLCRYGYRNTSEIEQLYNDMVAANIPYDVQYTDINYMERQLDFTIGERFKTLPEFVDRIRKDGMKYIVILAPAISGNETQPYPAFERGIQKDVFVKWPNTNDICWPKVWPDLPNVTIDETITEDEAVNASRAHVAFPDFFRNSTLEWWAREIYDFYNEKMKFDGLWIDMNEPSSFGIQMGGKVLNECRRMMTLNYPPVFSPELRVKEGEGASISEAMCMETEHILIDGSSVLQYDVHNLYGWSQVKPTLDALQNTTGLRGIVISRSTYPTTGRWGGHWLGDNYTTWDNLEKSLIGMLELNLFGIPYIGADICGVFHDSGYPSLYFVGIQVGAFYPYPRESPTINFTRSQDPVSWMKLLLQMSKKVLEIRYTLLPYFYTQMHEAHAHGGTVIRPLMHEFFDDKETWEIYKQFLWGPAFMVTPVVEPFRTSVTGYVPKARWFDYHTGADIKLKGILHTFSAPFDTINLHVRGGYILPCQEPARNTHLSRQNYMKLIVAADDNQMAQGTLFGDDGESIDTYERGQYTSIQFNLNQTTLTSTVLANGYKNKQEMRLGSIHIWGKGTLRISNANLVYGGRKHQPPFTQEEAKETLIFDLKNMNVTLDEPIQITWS
UniProt P23739, 1-1013 limits assumed: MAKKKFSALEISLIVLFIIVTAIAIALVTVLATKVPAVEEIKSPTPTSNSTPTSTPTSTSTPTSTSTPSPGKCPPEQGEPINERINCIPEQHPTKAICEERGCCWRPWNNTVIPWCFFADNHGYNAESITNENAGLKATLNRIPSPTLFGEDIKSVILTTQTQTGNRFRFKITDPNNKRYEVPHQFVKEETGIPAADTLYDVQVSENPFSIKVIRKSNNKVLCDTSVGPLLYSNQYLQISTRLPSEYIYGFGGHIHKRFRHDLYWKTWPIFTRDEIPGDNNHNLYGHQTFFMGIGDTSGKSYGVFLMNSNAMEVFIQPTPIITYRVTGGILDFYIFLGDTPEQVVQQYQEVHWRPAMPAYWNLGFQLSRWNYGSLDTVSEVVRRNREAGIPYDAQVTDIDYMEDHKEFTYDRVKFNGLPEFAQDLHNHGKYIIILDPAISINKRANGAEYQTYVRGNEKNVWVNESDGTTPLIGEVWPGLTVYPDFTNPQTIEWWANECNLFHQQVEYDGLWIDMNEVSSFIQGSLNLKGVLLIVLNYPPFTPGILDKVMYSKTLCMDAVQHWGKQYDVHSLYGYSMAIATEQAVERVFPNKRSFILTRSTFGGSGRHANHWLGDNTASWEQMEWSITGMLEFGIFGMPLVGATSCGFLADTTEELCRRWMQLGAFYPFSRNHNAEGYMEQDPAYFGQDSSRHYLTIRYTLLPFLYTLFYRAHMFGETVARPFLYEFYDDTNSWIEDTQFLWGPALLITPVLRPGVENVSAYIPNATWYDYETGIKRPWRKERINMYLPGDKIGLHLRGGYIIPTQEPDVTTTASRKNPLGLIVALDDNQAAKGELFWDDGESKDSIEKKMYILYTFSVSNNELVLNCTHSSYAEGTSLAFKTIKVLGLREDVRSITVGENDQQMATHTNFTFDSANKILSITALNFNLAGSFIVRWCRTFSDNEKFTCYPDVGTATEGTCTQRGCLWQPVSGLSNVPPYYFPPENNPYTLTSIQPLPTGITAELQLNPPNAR

In the experiment the target is Sucrase-isomaltase, intestinal (Rattus norvegicus, UniProt P23739). The experiment can be described thus: Inhibition of rat intestinal isomaltase.

For the compound `C[C@H]1O[C@H](O[C@H]2[C@H](O)[C@@H](O)[C@@H](O[C@H]3[C@H](O)[C@@H](O)[C@H](O)O[C@@H]3CO)O[C@@H]2CO)[C@H](O)[C@@H](O)[C@@H]1N[C@H]1C=C(CO)[C@@H](O)[C@H](O)[C@H]1O` [(2R,3R,4R,5S,6R)-5-((2R,3R,4R,5S,6R)-5-((2R,3R,4S,5S,6R)-3,4-dihydroxy-6-methyl-5-((1S,4S,5S,6S)-4,5,6-trihydroxy-3-(hydroxymethyl)cyclohex-2-enylamino)-tetrahydro-2H-pyran-2-yloxy)-3,4-dihydroxy-6-(hydroxymethyl)-tetrahydro-2H-pyran-2-yloxy)-6-(hydroxymethyl)-tetrahydro-2H-pyran-2,3,4-triol], the IC50 stood at 155 µM.
